# Measured affinities in a library of Ab-14 heavy chain variants

From the AlphaSeq antibody data of Engelhart et al. 2022 (doi:10.1038/s41597-022-01779-4), copy in the FLAb collection.

Target: peptide PDVDLGDISGINAS, taken from heptad repeat 2 (HR2) of SARS-CoV-2 spike.

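The starting antibody came from a phage panning campaign against this peptide. In library AAYL49, one, two or three CDR residues were substituted; doubles and triples were drawn at random. Affinity was read by AlphaSeq, a pooled yeast mating assay with surface-displayed partners. The frequency of each diploid, read from paired DNA barcodes, reflects how well the two displayed proteins bind. Each replicate has its own calibration line, from reference interactions of the BCL2 family. The assay was run in three technical replicates.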

Ab-14 is the parent antibody, in scFv form: VH, then the linker GGGGSGGGGSGGGGS, then VL. The light chain is unchanged in all variants.
VH: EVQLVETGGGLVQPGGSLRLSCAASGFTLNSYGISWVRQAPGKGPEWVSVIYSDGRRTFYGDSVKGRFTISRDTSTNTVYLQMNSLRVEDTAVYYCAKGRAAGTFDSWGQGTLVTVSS
VL: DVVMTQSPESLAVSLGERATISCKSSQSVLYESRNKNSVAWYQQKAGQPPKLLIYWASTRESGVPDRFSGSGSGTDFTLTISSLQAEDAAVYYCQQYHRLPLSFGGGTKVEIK

The parent's heavy chain CDRs are GFTLNSYGIS, VIYSDGRRTFYGDSVK, GRAAGTFDS; each variant's own CDRs replace them letter for letter.
Values are log10 of the apparent Kd in nM; lower means stronger binding.
"nd" marks a missing value. The strain was present, yet no cells mated with the target were sequenced in that replicate, which points to weak or no binding.
For reference, the parent read 0.65 as the reference entry and 4.11 (one replicate of three) as a member of this library.

{"CDR-H1": "GFTLNSYGIS", "CDR-H2": "VIYSDGRRTFHGDMVK", "CDR-H3": "GRAAGTFDT", "log10 Kd, replicates": "nd nd nd", "control signals": "0/9"}
{"CDR-H1": "GFTLNSYGIS", "CDR-H2": "VIYSDGRTTDYGDEVK", "CDR-H3": "GRAAGTFDS", "log10 Kd, replicates": "nd nd nd", "control signals": "0/9"}
{"CDR-H1": "GFTLNSYLIS", "CDR-H2": "VIYSDGRRTFYGDSVK", "CDR-H3": "GRAAGTACS", "log10 Kd, replicates": "nd nd nd", "control signals": "0/9"}
{"CDR-H1": "GFTENSYGIS", "CDR-H2": "VIYSDGRATFYGDSQK", "CDR-H3": "GRAAGTFDS", "log10 Kd, replicates": "nd 4.85 4.50", "control signals": "0/9"}
{"CDR-H1": "GFTLNSYGAS", "CDR-H2": "VIYSNGARTFYGDSVK", "CDR-H3": "GRAAGTFDS", "log10 Kd, replicates": "nd 3.26 5.76", "control signals": "6/9 (4.45)"}
{"CDR-H1": "GFTLNSYGID", "CDR-H2": "LIYSDGRRTFYGDSVK", "CDR-H3": "ARAAGTFDS", "log10 Kd, replicates": "nd 4.60 3.90", "control signals": "1/9 (4.01)"}
{"CDR-H1": "GFTLNSYGIS", "CDR-H2": "VIYSDTRRWFYGDSVK", "CDR-H3": "GRAAITFDS", "log10 Kd, replicates": "nd nd nd", "control signals": "3/9 (4.63)"}
{"CDR-H1": "GFTLNYYGIS", "CDR-H2": "VIYSDGRRTFYGDSVK", "CDR-H3": "GCAAGTFDS", "log10 Kd, replicates": "5.41 4.76 4.88", "control signals": "5/9 (4.08)"}
{"CDR-H1": "GFTLNHYHIS", "CDR-H2": "VIYSDGRRTFYGDCVK", "CDR-H3": "GRAAGTFDS", "log10 Kd, replicates": "nd nd nd", "control signals": "0/9"}
{"CDR-H1": "GFTTNNYHIS", "CDR-H2": "VIYSDGRRTFYGDSVK", "CDR-H3": "GRAAGTFDS", "log10 Kd, replicates": "nd nd nd", "control signals": "3/9 (4.46)"}
{"CDR-H1": "GFTLNSYGIS", "CDR-H2": "VIKSDGRRTFYGDIVK", "CDR-H3": "GHAAGTFDS", "log10 Kd, replicates": "nd 3.34 4.14", "control signals": "4/9 (4.19)"}
{"CDR-H1": "GFTLLCYGIS", "CDR-H2": "VIYSDGRRTFYGDSVK", "CDR-H3": "GRAAGTFDS", "log10 Kd, replicates": "nd nd nd", "control signals": "0/9"}
{"CDR-H1": "GFTLHSYGIS", "CDR-H2": "VIYSDGRRTHWGDSVK", "CDR-H3": "GRAAGTFDS", "log10 Kd, replicates": "nd nd nd", "control signals": "0/9"}
{"CDR-H1": "GFIGNSYGIS", "CDR-H2": "VIYSDGRRTFYKDSVK", "CDR-H3": "GRAAGTFDS", "log10 Kd, replicates": "nd nd nd", "control signals": "3/9 (4.62)"}
{"CDR-H1": "GFTLNSYGIS", "CDR-H2": "VIYSHGRWTMYGDSVK", "CDR-H3": "GRAAGTFDS", "log10 Kd, replicates": "nd 5.32 4.13", "control signals": "2/9 (4.16)"}
{"CDR-H1": "EMTLNSYGIS", "CDR-H2": "VIYSDGRRYFYGDSVK", "CDR-H3": "GRAAGTFDS", "log10 Kd, replicates": "3.77 3.04 4.13", "control signals": "3/9 (4.09)"}
{"CDR-H1": "GFTLNSYGGS", "CDR-H2": "VMYSDGRRTFSGDSVK", "CDR-H3": "GRAAGTFDS", "log10 Kd, replicates": "nd nd nd", "control signals": "1/9 (3.62)"}
{"CDR-H1": "GFTLNSAGIS", "CDR-H2": "VIYSDGPRTFYGDSRK", "CDR-H3": "GRAAGTFDS", "log10 Kd, replicates": "nd nd nd", "control signals": "1/9 (3.41)"}
{"CDR-H1": "VFTLNSYGIS", "CDR-H2": "VIYSDGRRTFLGDSVK", "CDR-H3": "GRAAKTFDS", "log10 Kd, replicates": "nd nd nd", "control signals": "0/9"}
{"CDR-H1": "GFTLNSYGIS", "CDR-H2": "VIYSDGRRTFYGDRVK", "CDR-H3": "GRAAGTPDS", "log10 Kd, replicates": "nd 4.32 nd", "control signals": "4/9 (4.37)"}
{"CDR-H1": "GFTLNSYYIS", "CDR-H2": "VIYSDGRATFYGESVK", "CDR-H3": "GRAAGTFDS", "log10 Kd, replicates": "nd nd nd", "control signals": "0/9"}
{"CDR-H1": "GFTLNSYGIS", "CDR-H2": "VIYSDGRRTFYGDSVK", "CDR-H3": "GSQAGTFDW", "log10 Kd, replicates": "0.44 0.66 0.51", "control signals": "4/9 (4.51)"}
{"CDR-H1": "GFTLNSYQIS", "CDR-H2": "VIYSDGRRTFYGDSVK", "CDR-H3": "GFAAMTFDS", "log10 Kd, replicates": "nd nd nd", "control signals": "0/9"}
{"CDR-H1": "GFTLNSYGIS", "CDR-H2": "VIYSDGRRTFYCDRVK", "CDR-H3": "GRAAGKFDS", "log10 Kd, replicates": "1.97 1.86 2.16", "control signals": "5/9 (4.86)"}
{"CDR-H1": "GFTLNWYGDS", "CDR-H2": "VIYSCGRRTFYGDSVK", "CDR-H3": "GRAAGTFDS", "log10 Kd, replicates": "nd nd 4.59", "control signals": "2/9 (4.26)"}
{"CDR-H1": "GFTLNSYGIE", "CDR-H2": "VIYSDGRRTFYGDSVH", "CDR-H3": "GRAATTFDS", "log10 Kd, replicates": "nd 3.40 nd", "control signals": "0/9"}
{"CDR-H1": "GFTLNSYGIS", "CDR-H2": "VIGSDGRRTFYGDSVK", "CDR-H3": "GRSAGTFDS", "log10 Kd, replicates": "nd nd nd", "control signals": "3/9 (3.98)"}
{"CDR-H1": "GFTLNSYTIS", "CDR-H2": "VLYSYGRRTFYGDSVK", "CDR-H3": "GRAAGTFDS", "log10 Kd, replicates": "nd nd nd", "control signals": "0/9"}
{"CDR-H1": "GFTLNSSGIS", "CDR-H2": "VIYSNGRRTFYGDSVK", "CDR-H3": "GRAAMTFDS", "log10 Kd, replicates": "5.05 4.17 5.15", "control signals": "7/9 (4.58)"}
{"CDR-H1": "GFTTNSYGIS", "CDR-H2": "VISSDGRRTFYQDSVK", "CDR-H3": "GRAAGTFDS", "log10 Kd, replicates": "4.53 4.53 4.16", "control signals": "8/9 (4.45)"}
{"CDR-H1": "GFTLNSYGIQ", "CDR-H2": "VTYSDGRRTFYGDSVK", "CDR-H3": "GRARGTFDS", "log10 Kd, replicates": "nd 5.03 3.95", "control signals": "2/9 (3.93)"}

Extract of 4 entries:

{"CDR-H1": "GFIGNSYGIS", "CDR-H2": "VIYSDGRRTFYKDSVK", "CDR-H3": "GRAAGTFDS", "log10 Kd, replicates": "nd nd nd", "control signals": "3/9 (4.62)"}
{"CDR-H1": "GFTENSYGIS", "CDR-H2": "VIYSDGRATFYGDSQK", "CDR-H3": "GRAAGTFDS", "log10 Kd, replicates": "nd 4.85 4.50", "control signals": "0/9"}
{"CDR-H1": "GFTLNSYYIS", "CDR-H2": "VIYSDGRATFYGESVK", "CDR-H3": "GRAAGTFDS", "log10 Kd, replicates": "nd nd nd", "control signals": "0/9"}
{"CDR-H1": "GFTLNSYGGS", "CDR-H2": "VMYSDGRRTFSGDSVK", "CDR-H3": "GRAAGTFDS", "log10 Kd, replicates": "nd nd nd", "control signals": "1/9 (3.62)"}

Empty control strains, which show no peptide, gave a signal in 15% of pairings with library AAYL49; the median was 4.06 and 95% of these signals were weaker than 2.83. No background was subtracted. For each scFv, signals with the empty controls are counted beside the result, with their mean in brackets.